Values of other authors, collected in patent US7763418B2, “Detection of Rho proteins” (Cytoskeleton, Inc., priority 2005, dated 2010).

Molecular target: Ras
Details: read-out: published affinity Ras:Raf1; cited from earlier work

For “Raf1: partner of Ras in the published Ras:Raf1 affinity”, the Kd is given as about 20 nM.
